Measurements: patent US20110052570A1, “METHOD TO PROGNOSE RESPONSE TO ANTI-EGFR THERAPEUTICS” (CHILDREN'S MEDICAL CENTER CORPORATION, priority 2005, published 2011)

Biological target: EGFR on tumor endothelial cells (tumor EC) isolated from xenografts in nude mice (mouse) (UniProt Q01279)
Assay: cell-based or functional assay

Q: With EGF (R&D Systems) (ligand) as the substance, how does the cell proliferation (MTT assay) of tumor EC at 20 ng/ml EGF read?
A: 2.5 fold
